Measurements as given in patent US5527781A, “4-O-(aminoglycosyl)- or 4,6-di-O-(aminoglycosyl)-2,5-dideoxy-5,5-difluorostreptamine derivatives” (Zaidan Hojin Biseibutsu Kagaku Kenkyu Kai, priority 1990, dated 1996).

Assay: in vivo
Conditions: mouse, iv, pH 7
Excerpt: Further, in order to estimate acute toxicity of the compound of the general formula (I) according to this invention, some examples of the compounds of this invention were independently dissolved in water to prepare aqueous solutions (as adjusted to pH 7 by addition of hydrochloric acid). […] The tested compounds of this invention are expressed by the same abbreviations as in Table 1. […] The comparative compounds as tested are also expressed by the same abbreviations as in Table 1.

**Q.** For `NC[C@@H]1CC[C@@H](N)[C@@H](O[C@H]2[C@H](O)[C@@H](O[C@H]3O[C@H](CO)[C@@H](O)[C@H](N)[C@H]3O)[C@H](N)C[C@@H]2N)O1` [DKB, 3',4'-dideoxy-kanamycin B, reference compound], which LD50 is on record?
**A.** Its LD50 is roughly 90 mg/kg.
